# scFv variants of Ab-14 (heavy chain) against a SARS-CoV-2 spike peptide

Binding partner: SARS-CoV-2 spike HR2 peptide, sequence PDVDLGDISGINAS.

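The parent was found by panning a naive human phage display library on the peptide. Variants in AAYL49 differ from the parent at up to three CDR positions; double and triple changes were sampled at random. The scFvs were displayed on barcoded MATa yeast, the peptide on MATalpha yeast. The frequency of each diploid, read from paired DNA barcodes, reflects how well the two displayed proteins bind. Read counts were normalised to the haploid input and turned into Kd by a linear fit to BCL2-family pairs of known affinity, for each replicate. The assay was run in three technical replicates.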

Parent: Ab-14, a human scFv built as VH, a 15-residue (Gly4Ser)3 linker, VL. Only the CDRs of the heavy chain vary.
VH: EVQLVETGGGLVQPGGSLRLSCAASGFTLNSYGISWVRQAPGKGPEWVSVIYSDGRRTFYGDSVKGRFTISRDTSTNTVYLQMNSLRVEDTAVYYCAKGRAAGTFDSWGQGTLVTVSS
VL: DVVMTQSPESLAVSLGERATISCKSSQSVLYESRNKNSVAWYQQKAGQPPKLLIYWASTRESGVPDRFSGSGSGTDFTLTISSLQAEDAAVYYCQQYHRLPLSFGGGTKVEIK

Substitutions are numbered in sequence along the VH above, starting at 1 (not Kabat).
The read-out is the apparent dissociation constant on a log10 scale (nM): the lower, the stronger.
A mean of the replicates is given; it leaves out those without a signal.
Where no diploid with the target was found in any replicate, the entry reads "nd": below detection, most likely a poor binder, though not proof of it.

| changes | log10 Kd (nM), mean | seen in |
|---|---|---|
| G33W R57M T104L | 4.29 | 2/3 |
| G26M G55E S107Q | nd | 0/3 |
| Y52P R57Y T58F | nd | 0/3 |
| I51W Y52I A101K | 4.93 | 2/3 |
| N30K S35A F59N | 4.45 | 1/3 |
| D62Q R100D T104D | 4.16 | 1/3 |
| L29Y V50A | 5.06 | 2/3 |
| F27M V50M T58S | nd | 0/3 |
| G26Q G55L T58H | nd | 0/3 |
| G33V S35I V50K | 4.09 | 1/3 |
| Y52I R56P T104I | 4.40 | 1/3 |
| S31Q V64T A101D | 1.89 | 3/3 |
| G55N T58S F59Q | 2.91 | 1/3 |
| F27E T58H D62M | 3.58 | 2/3 |
| G55R F59D K65H | 4.63 | 3/3 |
| S31W R57C S63A | 4.68 | 1/3 |
| R56T R57K S107K | 4.59 | 1/3 |
| S31T V50I G99A | 4.08 | 3/3 |
| I51C T58C G103V | 3.90 | 1/3 |
| S31K S53F R57Y | nd | 0/3 |
| N30A S35T F59W | nd | 0/3 |
| G26A S63R G99T | nd | 0/3 |
| V50E T58E G61M | nd | 0/3 |
| K65E A101S S107K | nd | 0/3 |
| G26R G61A | 0.99 | 3/3 |
| G33S T104G | nd | 0/3 |
| G33E Y60Q A102R | nd | 0/3 |
| I51L K65H G103S | 3.22 | 1/3 |
| T28N G61W F105M | 5.13 | 3/3 |
| F27Y Y60S | 3.83 | 2/3 |
| L29N Y60R G103K | nd | 0/3 |
| G33P G99K F105L | 3.10 | 1/3 |
| Y32P S63K | nd | 0/3 |
| Y60Q G61Q S107K | 2.51 | 3/3 |
| T58L F59K V64W | nd | 0/3 |
| L29F I51E A101D | nd | 0/3 |
| T28Q I51T R57F | 3.74 | 2/3 |
| F59V K65C A102E | 2.61 | 1/3 |
| S31I I51Q | nd | 0/3 |
| I34Q G55P A101Q | nd | 0/3 |
| Y32D K65D A101N | nd | 0/3 |
| T28P R100L A102P | 2.14 | 3/3 |
| K65S S107V | 1.10 | 3/3 |
| I34T S53M | nd | 0/3 |
| Y32N R57K D106Y | nd | 0/3 |
| Y32I R100E A102R | 3.61 | 1/3 |
| K65C A101S F105C | 1.46 | 3/3 |
| T28C R56C G103H | 4.17 | 1/3 |
| T28I L29E S107L | nd | 0/3 |
| L29C R56D Y60K | nd | 0/3 |
| L29D I34R R100W | 4.58 | 1/3 |
| T28V G33I D106I | 3.22 | 2/3 |
| I51H F105E D106Y | 4.65 | 1/3 |
| I34S R56D T58A | 2.75 | 1/3 |
| S31C D62E V64N | nd | 0/3 |
| I51Q S53V T104I | nd | 0/3 |
| T28V F59M R100D | 1.84 | 3/3 |
| Y32S V50I R100P | 4.92 | 3/3 |
| G26L Y52M R56N | 4.67 | 1/3 |
| G55N F59Q T104F | 5.04 | 1/3 |
| D54G G61R V64A | nd | 0/3 |
| L29E G55A S107L | nd | 0/3 |
| N30Y R100A S107H | 2.33 | 2/3 |
| T28H G33Y R56M | 2.90 | 1/3 |
| T58Q Y60K R100D | 5.24 | 1/3 |

For reference, 9 entries of the list once more:

changes,"log10 Kd (nM), mean",seen in
I51C T58C G103V,3.90,1/3
L29E G55A S107L,nd,0/3
T28N G61W F105M,5.13,3/3
L29N Y60R G103K,nd,0/3
T58L F59K V64W,nd,0/3
T28C R56C G103H,4.17,1/3
G26A S63R G99T,nd,0/3
N30A S35T F59W,nd,0/3
T28P R100L A102P,2.14,3/3

Background: pairings of library AAYL49 with three empty control strains gave a value in 15% of cases (median 4.06, 5th percentile 2.83). Values in that range, when seen in few replicates, are hard to tell from nonspecific mating.

Data: MIT Lincoln Laboratory AlphaSeq set, Engelhart et al. 2022, doi:10.1038/s41597-022-01779-4, as distributed in FLAb.